In one test the target is T1, human M1 receptors (Homo sapiens, UniProt P11229).
T1 construct: expressed in transfected cells; host or cells: CHO-K1
The experiment in a line: [3H]-NMS binding studies, M1 receptors from CHO-K1 cells.

Sequences of proteins named here, by UniProt entry; tags and fusion partners are left off. A change or cut given only in a name is not applied to a line headed by its entry.
UniProt P11229: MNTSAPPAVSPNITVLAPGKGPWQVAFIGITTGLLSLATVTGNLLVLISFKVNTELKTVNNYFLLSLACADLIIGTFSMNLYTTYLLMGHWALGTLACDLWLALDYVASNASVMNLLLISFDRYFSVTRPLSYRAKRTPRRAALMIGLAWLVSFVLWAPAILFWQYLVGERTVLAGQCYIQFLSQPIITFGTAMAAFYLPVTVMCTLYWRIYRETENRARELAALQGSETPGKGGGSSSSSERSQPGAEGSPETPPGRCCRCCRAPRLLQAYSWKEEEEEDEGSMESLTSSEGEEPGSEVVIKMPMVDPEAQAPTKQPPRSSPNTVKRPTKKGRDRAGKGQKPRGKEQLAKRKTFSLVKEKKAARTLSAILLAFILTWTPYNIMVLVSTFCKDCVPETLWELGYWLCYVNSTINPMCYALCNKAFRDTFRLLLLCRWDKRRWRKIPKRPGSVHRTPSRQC

Another test relates to M1. To be noted: rabbit vas deferens.

In general, Ki refers to a dissociation constant, usually derived from enzyme kinetics or from competition with a known ligand. Compound `C[N+]1(C)CC[C@@H](OC(=O)[C@@](O)(c2ccccc2)C2CCCC2)C1` [Id, (3R,2′S)-3-[(cyclopentylhydroxyphenylacetyl)oxy]-1,1-dimethylpyrrolidinium iodide] had a Ki at human M1 receptors of 437 pM. Moreover, the “PA2 RVD (M1)” value in the test on M1 is recorded as 9.53.

`C[N+]1(C)CC[C@H](OC(=O)[C@@](O)(c2ccccc2)C2CCCC2)C1` [Ia, (3S,2′S)-3-[(cyclopentylhydroxyphenylacetyl)oxy]-1,1-dimethylpyrrolidinium iodide]: the Ki on human M1 receptors was 4370 pM. For the same compound, in the test on M1, the “PA2 RVD (M1)” value turned out to be 8.22.

On human M1 receptors, `C[N+]1(C)CC[C@H](OC(=O)[C@](O)(c2ccccc2)C2CCCC2)C1` [Ib, (3S,2′R)-3-[(cyclopentylhydroxyphenylacetyl)oxy]-1,1-dimethylpyrrolidinium iodide] showed an inhibition constant Ki of 33.1 pM. For the same compound, the “PA2 RVD (M1)” value in the test on M1 was 10.40.

At human M1 receptors, `C[N+]1(C)CC[C@@H](OC(=O)[C@](O)(c2ccccc2)C2CCCC2)C1` [Ic, (3R,2′R)-3-[(cyclopentylhydroxyphenylacetyl)oxy]-1,1-dimethylpyrrolidinium iodide] showed a Ki of 66.1 pM. That is a picomolar value.

For the origin of these results see patent US6613795B2, “Enantiomerically pure basic arylcycloalkylhydroxycarboxylic esters, processes for their preparation and their use in medicaments” (priority 1996, dated 2003).
